Assay results reported in US6171294A.
Like-named read-outs stand apart in the source and are kept apart here. Some compounds may have been tested in ways that are not shown here.

Key:
[1] = cited from earlier work
[2] = in vitro transdermal electrotransport fentanyl flux, two-compartment diffusion cell, constant DC current
[3] = system: silver ion migration into the patient's skin; assay: drug loading needed to prevent silver ion migration / TED and to induce and maintain analgesia during electrotransport delivery; settings: in vivo
[4] = transdermal electrotransport flux / delivery efficiency of sufentanil
[5] = electrotransport delivery, citrate buffer pH 5

| Structure (SMILES) | lag time (time required to achieve peak plasma levels) [1, 5] [h] | lag time (time required to achieve peak plasma levels) ([1]; passive transdermal patches) [h] | time to steady state transdermal flux ([2]; 200 μA (100 μA/cm^2), average of 6 runs) [h] | normalized transdermal flux (percentage of steady state flux) ([2]; fentanyl HCl concentrations above about 6 mg/mL) [%] | plasma concentration by simple diffusion ([1]; simple (passive) diffusion, citrate buffer pH 5) | sufentanil HCl loading needed to prevent silver ion migration relative to analgesically effective loading [3] | transdermal electrotransport delivery efficiency relative to fentanyl ([4]; rate of drug delivered per unit of applied electrotransport current, vs fentanyl) | equivalent minimum concentration for concentration-independent flux ([4]; sufentanil citrate, equivalent to 1.7 mM) | minimum concentration below which transdermal electrotransport flux becomes dependent on concentration ([4]; sufentanil salt in donor reservoir solution) |
| --- | --- | --- | --- | --- | --- | --- | --- | --- | --- |
| CCC(=O)N(c1ccccc1)C1CCN(CCc2ccccc2)CC1 | 1.5 | 14 | 8 | 100 | – | – | – | – | – |
| CCC(=O)N(c1ccccc1)C1(COC)CCN(CCc2cccs2)CC1 | 1.5 | 14 | – | – | did not produce any detectable plasma concentration | at least 4 times | one-third | about 1 mg/mL | about 1.7 mM |
